Where “and” joins values, the source holds several entries; their conditions need not be identical. Equal values may be shown once.
Each molecule was assayed against cap-dependent endonuclease (RNP fraction containing PB1•PB2•PA complex) (Influenza A virus, UniProt P15659) (assay: biochemical). Conditions: CEN IC50.
Parameters: species or system A/WSN/33 virus
With `CC(C)=CCN1C[C@H](C(c2ccccc2)c2ccccc2)n2cc(C(=O)O)c(=O)c(O)c2C1=O` [Example 182] the IC50 was 0.099 µM. For `Cc1nnc(CN2CN(C3c4ccccc4CCc4ccccc43)n3ccc(=O)c(O)c3C2=O)o1` [Example 256], the IC50 was 0.038 µM. `COCCN1CN(C2c3ccccc3CCc3ccccc32)n2ccc(=O)c(O)c2C1=O` [Example 258] gave an IC50 of 0.042 µM. Molecule `CC(=O)OCC(C)N1CN(C2c3ccccc3CCc3ccccc32)n2ccc(=O)c(O)c2C1=O` (stereo not shown) [Example 261] has an IC50 of 0.058 µM. With `CC(C)(C)N1CN(C2c3ccccc3CCc3ccccc32)n2ccc(=O)c(O)c2C1=O` [Example 265] the IC50 was 0.172 µM. For `Cc1noc(CN2CN(C3c4ccccc4CCc4ccccc43)n3ccc(=O)c(O)c3C2=O)n1` [Example 270], the IC50 was 0.058 µM. `CC(N1CN(C2c3ccccc3CCc3ccccc32)n2ccc(=O)c(O)c2C1=O)C(F)(F)F` (stereo not shown) [Example 274] was tested, and the IC50 was 0.038 µM and 0.157 µM. With `CC(=O)OCCN1CN(C2c3ccccc3CCc3ccccc32)n2ccc(=O)c(O)c2C1=O` [Example 276] the IC50 was 0.053 µM. `CC(C)N1CN(C2c3cc(F)ccc3CCc3ccc(F)cc32)n2ccc(=O)c(O)c2C1=O` [Example 279] showed an IC50 of 0.056 µM. Molecule `CC(=O)N1CC[C@@H](N2CN(C3c4ccccc4CSc4ccccc43)n3ccc(=O)c(O)c3C2=O)C1` (stereo partly shown) [Example 289] has an IC50 of 0.031 µM. For `CN1CCC(CN2CN(C3c4ccccc4CSc4ccccc43)n3ccc(=O)c(O)c3C2=O)CC1` (stereo not shown) [Example 292], the IC50 was 0.155 µM. `O=C1c2c(O)c(=O)ccn2N(C2c3ccccc3CSc3ccccc32)CN1CCOC(F)(F)F` (stereo not shown) [Example 297] was tested, and the IC50 was 0.045 µM. With `CCOCCN1CN(C2c3ccccc3CSc3ccccc32)n2ccc(=O)c(O)c2C1=O` (stereo not shown) [Example 312] the IC50 was 0.019 µM. `COCC(COC)N1CN(C2c3ccccc3CSc3ccccc32)n2ccc(=O)c(O)c2C1=O` (stereo not shown) [Example 318] was tested, and the IC50 was 0.13 µM.

Same assay, conditions: RNP from A/WSN/33 virus, capped Cy3/BHQ2 30mer RNA substrate, 60 minutes at room temperature; read-out: CEN IC50
In the case of `COCCN1C[C@H](C(c2ccccc2)c2ccccc2)n2cc(Br)c(=O)c(O)c2C1=O` [Example 63], the IC50 is reported as 0.17 µM. `CCCN1C[C@H](C(c2ccccc2)c2ccccc2)n2cc(C(=O)O)c(=O)c(O)c2C1=O` [Example 181] gave an IC50 of 0.049 µM. For `CC(C)OCCN1C[C@H](C(c2ccccc2)c2ccccc2)n2cc(C(=O)O)c(=O)c(O)c2C1=O` [Example 184], the IC50 was 0.055 µM. `CCC(C)N1C[C@H](C(c2ccccc2)c2ccccc2)n2cc(C(=O)O)c(=O)c(O)c2C1=O` (stereo partly shown) [Example 186] showed an IC50 of 0.085 µM. With `CCCC(C)N1C[C@H](C(c2ccccc2)c2ccccc2)n2cc(C(=O)O)c(=O)c(O)c2C1=O` (stereo partly shown) [Example 187] the IC50 was 0.085 µM. With `CC(C)N1CN(Cc2ccc(Cl)c(Cl)c2)n2ccc(=O)c(O)c2C1=O` [Example 199] the IC50 was 0.236 µM. `CC(N1CN(C(c2ccccc2)c2ccccc2Cl)n2ccc(=O)c(O)c2C1=O)C(F)(F)F` (stereo not shown) [Example 242] gave an IC50 of 0.114 µM. For `C[C@@H](N1CN(C(c2ccccc2)c2ccccc2Cl)n2ccc(=O)c(O)c2C1=O)C(F)(F)F` (stereo partly shown) [Example 243], the IC50 was 0.076 µM. In the case of `O=C1c2c(O)c(=O)ccn2N(C2c3ccccc3CCc3ccccc32)CN1CCF` [Example 262], the IC50 is reported as 0.032 µM. `O=C1c2c(O)c(=O)ccn2N(C2c3ccccc3CCc3ccccc32)CN1CC(F)(F)F` [Example 263] showed an IC50 of 0.085 µM. Work on `COCCCN1CN(C2c3ccccc3CCc3ccccc32)n2ccc(=O)c(O)c2C1=O` [Example 267] yielded an IC50 of 0.029 µM. `CS(=O)(=O)CCN1CN(C2c3ccccc3CCc3ccccc32)n2ccc(=O)c(O)c2C1=O` [Example 269] showed an IC50 of 0.073 µM. In the case of `CC(C)N1CN(C2c3ccccc3CCc3c(Cl)cccc32)n2ccc(=O)c(O)c2C1=O` (stereo not shown) [Example 282], the IC50 is reported as 0.036 µM. Work on `CC(C)N1CN(C2c3ccc(F)cc3CCc3cc(F)ccc32)n2ccc(=O)c(O)c2C1=O` [Example 284] yielded an IC50 of 0.042 µM. Work on `O=C1c2c(O)c(=O)ccn2N(C2c3ccccc3CSc3ccccc32)CN1CCCF` (stereo not shown) [Example 298] yielded an IC50 of 0.044 µM. `O=C1c2c(O)c(=O)ccn2N(C2c3ccccc3CSc3ccccc32)CN1CC(F)(F)F` (stereo not shown) [Example 306] was tested, and the IC50 was 0.076 µM. `CC(=O)OCCN1CN(C2c3ccccc3CSc3ccccc32)n2ccc(=O)c(O)c2C1=O` (stereo not shown) [Example 325] gave an IC50 of 0.032 µM.

From patent US9815835B2, “Substituted polycyclic carbamolypyridone derivative” (priority 2009, dated 2017)
